Test results reported in patent US20210319279A1.
Values joined by “and” are separate entries in the source; they are usually repeats but may differ in a detail not shown here. Equal entries are not always repeated.

Protein sequences, listed by entry. Tags and fused reporters are not part of them. Lines headed by an entry give the natural chain unless they say otherwise; changes in a name come on top.
UniProt P30874: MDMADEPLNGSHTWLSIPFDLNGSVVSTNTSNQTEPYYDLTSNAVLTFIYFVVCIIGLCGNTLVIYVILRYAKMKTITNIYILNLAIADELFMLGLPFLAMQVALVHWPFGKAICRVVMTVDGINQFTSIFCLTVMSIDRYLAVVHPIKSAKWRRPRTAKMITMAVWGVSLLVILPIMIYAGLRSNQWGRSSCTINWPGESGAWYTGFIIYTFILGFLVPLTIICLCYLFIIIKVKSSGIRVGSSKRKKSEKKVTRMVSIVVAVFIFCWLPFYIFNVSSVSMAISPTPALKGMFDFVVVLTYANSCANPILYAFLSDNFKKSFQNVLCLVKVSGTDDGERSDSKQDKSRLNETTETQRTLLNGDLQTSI
UniProt P61278: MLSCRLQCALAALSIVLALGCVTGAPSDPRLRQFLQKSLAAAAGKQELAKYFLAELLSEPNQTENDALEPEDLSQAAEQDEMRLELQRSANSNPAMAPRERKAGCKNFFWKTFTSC

Molecular target: recombinant human somatostatin receptor 2 (SSTR2) expressed in the plasma membrane of yeast (human) (UniProt P30874)
Test: cell-based or functional assay

- beta-lactamase concentration (kinetic nitrocefin assay), fold change of induced rsX626 against its uninduced condition: 20 fold and 30 fold
Substance: recombinant human SST-14 secreted by yeast (from UniProt P61278 103-116) (peptide)
